Test results reported in IntAct's records for PubMed 35512704.

B1: RAC-alpha serine/threonine-protein kinase (Homo sapiens), P31749 (parent)
chain: MSDVAIVKEGWLHKRGEYIKTWRPRYFLLKNDGTFIGYKERPQDVDQREAPLNNFSVAQCQLMKTERPRPNTFIIRCLQWTTVIERTFHVETPEEREEWTTAIQTVADGLKKQEEEEMDFRSGSPSDNSGAEEMEVSLAKPKHRVTMNEFEYLKLLGKGTFGKVILVKEKATGRYYAMKILKKEVIVAKDEVAHTLTENRVLQNSRHPFLTALKYSFQTHDRLCFVMEYANGGELFFHLSRERVFSEDRARFYGAEIVSALDYLHSEKNVVYRDLKLENLMLDKDGHIKITDFGLCKEGIKDGATMKTFCGTPEYLAPEVLEDNDYGRAVDWWGLGVVMYEMMCGRLPFYNQDHEKLFELILMEEIRFPRTLGPEAKSLLSGLLKKDPKQRLGGGSEDAKEIMQHRFFAGIVWQHVYEKKLSPPFKPQVTSETDTRYFDEEFTAQMITITPPDQDDSMECVDSERRPHFPQFSYSASGTA

Variants of: B1
Settings: with dnm3a_human DNMT3A

Row | Variant | effect of a mutation on the interaction
1 | E17K | with no effect

Variants of: B1
Settings: with e2f1_human E2F1, Q01094

Row | Variant | effect of a mutation on the interaction
2 | E17K | with no effect

Variants of: B1
Settings: with e2f3_human E2F3, O00716

Row | Variant | effect of a mutation on the interaction
3 | E17K | with no effect

Variants of: B1
Settings: with e2f4_human E2F4, Q16254

Row | Variant | effect of a mutation on the interaction
4 | E17K | with no effect

Variants of: B1
Settings: with e2f6_human E2F6, O75461

Row | Variant | effect of a mutation on the interaction
5 | E17K | with no effect

Variants of: B1
Settings: with e2f8_human E2F8, A0AVK6

Row | Variant | effect of a mutation on the interaction
6 | E17K | with no effect

Variants of: B1
Settings: with if4e_human EIF4E

Row | Variant | effect of a mutation on the interaction
7 | E17K | with no effect

Variants of: B1
Settings: with if5a2_human EIF5A2, Q9GZV4

Row | Variant | effect of a mutation on the interaction
8 | E17K | with no effect

Variants of: B1
Settings: with ephb1_human EPHB1, P54762

Row | Variant | effect of a mutation on the interaction
9 | E17K | with no effect

Variants of: B1
Settings: with erbb3_human ERBB3, P21860

Row | Variant | effect of a mutation on the interaction
10 | E17K | with no effect

Variants of: B1
Settings: with tnr6_human FAS

Row | Variant | effect of a mutation on the interaction
11 | E17K | with no effect

Variants of: B1
Settings: with fgfr1_human FGFR1, P11362

Row | Variant | effect of a mutation on the interaction
12 | E17K | with no effect

Variants of: B1
Settings: with fgfr4_human FGFR4, P22455

Row | Variant | effect of a mutation on the interaction
13 | E17K | with no effect

Variants of: B1
Settings: with fumh_human FH

Row | Variant | effect of a mutation on the interaction
14 | E17K | with no effect

Variants of: B1
Settings: with gbra1_human GABRA1, P14867

Row | Variant | effect of a mutation on the interaction
15 | E17K | with no effect

Variants of: B1
Settings: with gbra6_human GABRA6, Q16445

Row | Variant | effect of a mutation on the interaction
16 | E17K | with no effect

Variants of: B1
Settings: with gnaq_human GNAQ

Row | Variant | effect of a mutation on the interaction
17 | E17K | with no effect

Variants of: B1
Settings: with grm1_human GRM1, Q13255

Row | Variant | effect of a mutation on the interaction
18 | E17K | with no effect

Variants of: B1
Settings: with grm3_human GRM3, Q14832

Row | Variant | effect of a mutation on the interaction
19 | E17K | with no effect

Variants of: B1
Settings: with gsk3a_human GSK3A

Row | Variant | effect of a mutation on the interaction
20 | E17K | with no effect

Variants of: B1
Settings: with gsk3b_human GSK3B

Row | Variant | effect of a mutation on the interaction
21 | E17K | with no effect

Variants of: B1
Settings: with gtpb4_human GTPBP4

Row | Variant | effect of a mutation on the interaction
22 | E17K | with no effect

Variants of: B1
Settings: with hgf_human HGF

Row | Variant | effect of a mutation on the interaction
23 | E17K | with no effect

Variants of: B1
Settings: with hif1a_human HIF1A

Row | Variant | effect of a mutation on the interaction
24 | E17K | with no effect

Variants of: B1
Settings: with h31_human H3C1

Row | Variant | effect of a mutation on the interaction
25 | E17K | with no effect

Variants of: B1
Settings: with hlab_human HLA-B

Row | Variant | effect of a mutation on the interaction
26 | E17K | with no effect

Variants of: B1
Settings: with hnf1a_human HNF1A

Row | Variant | effect of a mutation on the interaction
27 | E17K | with no effect

Variants of: B1
Settings: with igf1r_human IGF1R

Row | Variant | effect of a mutation on the interaction
28 | E17K | with no effect

Variants of: B1
Settings: with igf2_human IGF2, P01344

Row | Variant | effect of a mutation on the interaction
29 | E17K | with no effect

Variants of: B1
Settings: with il7ra_human IL7R

Row | Variant | effect of a mutation on the interaction
30 | E17K | with no effect

Variants of: B1
Settings: with int12_human INTS12

Row | Variant | effect of a mutation on the interaction
31 | E17K | with no effect

Variants of: B1
Settings: with irf6_human IRF6

Row | Variant | effect of a mutation on the interaction
32 | E17K | with no effect

Variants of: B1
Settings: with jak1_human JAK1, P23458

Row | Variant | effect of a mutation on the interaction
33 | E17K | with no effect

Variants of: B1
Settings: with jak3_human JAK3, P52333

Row | Variant | effect of a mutation on the interaction
34 | E17K | with no effect

Variants of: B1
Settings: with kat2a_human KAT2A

Row | Variant | effect of a mutation on the interaction
35 | E17K | with no effect

Variants of: B1
Settings: with kdm6a_human KDM6A

Row | Variant | effect of a mutation on the interaction
36 | E17K | with no effect

Variants of: B1
Settings: with vgfr2_human KDR

Row | Variant | effect of a mutation on the interaction
37 | E17K | with no effect

Variants of: B1
Settings: with rask_human KRAS

Row | Variant | effect of a mutation on the interaction
38 | E17K | with no effect
